# GIV-Gai inh: inhibitors of GIV GBA-motif binding to rat Galpha-i3; P08753; Galpha-i3/FITC-GIV peptide fluorescence polarization, 90 min; active compounds read low; scaled: aluminum fluoride 0%, vehicle 100%; percent of control (FP), % (test concentration not listed); 210,000 tested, 0.42% active; AID 1224905;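 active = replicate mean at 85% of control or lower, very high polarization wells dropped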;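 note: lower values mean more displacement of the GIV peptide from Galpha-i3; wells of about 15 µL received 100 nL stock; the first replicate is given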
# HCMV UL50-53 inh: disrupts HCMV UL50-UL53 complex binding; HTRF UL50-UL53 interaction, normalized percent inhibition; inhibition, % (no concentration beside the values); 190,000 compounds, 0.15% hits; in the data active = inhibition above about 27%, passing the limit was not always enough
# * marks the source's active call; other numbers are inactive results; nt = no result. The full list was thinned out, with hits kept by preference.
1) O=C(NCc1cccs1)c1cc2c(s1)CN(C1CC1)C2
2) O=c1oc2ccccc2cc1-c1nc2ccccc2s1
3) O=c1oc2c(CN3CCCCC3)c(O)ccc2cc1-c1nc2ccccc2s1
4) CCc1ccc2nc(Nc3nc4ccccc4c(=O)[nH]3)nc(C)c2c1
5) CCc1ccc2c(C)nc(NC3=NC(C)(C)C=C(C)N3)nc2c1
6) Cc1ccccc1Nc1cc2ccccc2c(=O)[nH]1
7) Cc1nc2cc3ccccc3cc2c(=O)[nH]1
8) Cc1sc(-c2nc(C(C)C)cs2)cc1S(=O)(=O)NCc1ccccc1

entry no. | 1 | 2 | 3 | 4 | 5 | 6 | 7 | 8
GIV-Gai inh | 101 | 101 | -32* | 101 | nt | 88 | 108 | 106
HCMV UL50-53 inh | nt | -10 | -47 | nt | 49* | 58* | -68 | nt

# A draw from above in order of heavy-atom count, rising:
7) Cc1nc2cc3ccccc3cc2c(=O)[nH]1
2) O=c1oc2ccccc2cc1-c1nc2ccccc2s1
5) CCc1ccc2c(C)nc(NC3=NC(C)(C)C=C(C)N3)nc2c1
8) Cc1sc(-c2nc(C(C)C)cs2)cc1S(=O)(=O)NCc1ccccc1

entry no. | 7 | 2 | 5 | 8
GIV-Gai inh | 108 | 101 | nt | 106
HCMV UL50-53 inh | -68 | -10 | 49* | nt

# Later entries:
9) COc1cc(/C=C2/OC(=S)N(C)C2=O)ccc1O
10) COc1ccc(/C=C2\OC(=S)N(C)C2=O)cc1
11) CC(C)c1cc(Nc2cc(F)cc(F)c2)n2nc(-c3cccnc3)nc2n1
12) Nc1nnc2cc(C(=O)c3cc(F)ccc3O)cnn12
13) Cc1ccc(O)c(C(=O)c2cnn3c(N)nnc3c2)c1
14) CSC1=C(C#N)C(c2cccc(Cl)c2Cl)C2=C(CCCC2=O)N1 (configuration not stated)
15) C#CCN1C(=O)S/C(=C/C=C/c2ccc(N(C)C)cc2)C1=O
16) CN1C(=O)/C(=C\C=C\c2ccc(N(C)C)cc2)SC1=S

entry no. | 9 | 10 | 11 | 12 | 13 | 14 | 15 | 16
GIV-Gai inh | -73* | 103 | 105 | nt | nt | nt | -61* | 126
HCMV UL50-53 inh | -64 | nt | -7 | -10 | 51* | -8 | -24 | nt

17) CS(=O)(=O)c1ccc(Cl)c(NC(=O)CN2CCN(Cc3ccc(Cl)s3)CC2)c1
18) COc1ccc(N(C=O)/C=C2\Sc3ccccc3C2=O)cc1
19) COc1ccc(N(/C=C2\Sc3ccccc3C2=O)C(=O)c2ccco2)cc1
20) Oc1ccc(NC(=S)Nc2ccc(O)cc2)cc1
21) CNc1ccc(O)cc1
22) Cc1nc(-c2cc(S(=O)(=O)NCc3ccc(OC(C)C)cc3)c(C)s2)cs1
23) COc1ccc(N=Cc2ccc(N(C)CCC#N)cc2)cc1
24) CN(CCC#N)c1ccc(/C=C2\CC/C(=C\c3ccc(N(C)CCC#N)cc3)C2=O)cc1

entry no. | 17 | 18 | 19 | 20 | 21 | 22 | 23 | 24
GIV-Gai inh | nt | -15* | 184 | 108 | nt | 98 | 102 | -41*
HCMV UL50-53 inh | 7 | -34 | -32 | -11 | 69* | nt | -30 | -53

25) CC(C)/C=C1\CC/C(=C\c2ccc(Cl)cc2)C1=O
26) CCN(CC)c1ccc(/C=C2\CC/C(=C\C(C)C)C2=O)cc1
27) COc1cc(=O)n(-c2ccccc2)nc1C(=O)NC(C)(C)C
28) CCOC(=O)c1sc(NC(=O)C2c3ccccc3Oc3ccccc32)c(C#N)c1C
29) CCOC(=O)c1sc(N/C=C(\C#N)c2nc3cc(Cl)ccc3o2)c(C#N)c1C
30) CCc1ccc(NC(=O)CC2C(=O)N(c3ccccc3)C(=O)N2C2CCCC2)cc1 (configuration not stated)
31) O=C1c2[nH]nc(-c3ccccc3O)c2C(c2ccc(Br)cc2)N1CC1CCCO1 (configuration not stated)
32) C=CCn1ccn(-c2ccc(OCC)cc2)c(=O)c1=O

entry no. | 25 | 26 | 27 | 28 | 29 | 30 | 31 | 32
GIV-Gai inh | 103 | -88* | 97 | 106 | -7.6* | 104 | 102 | 101
HCMV UL50-53 inh | nt | -43 | 1 | 2 | -6 | -30 | -13 | -54

33) CCCN1CCc2c(sc(NC(=S)NC(=O)c3ccccc3)c2C#N)C1
34) CC(=O)N1CCc2c(sc(NC(=O)c3ccc(C#N)cc3)c2C#N)C1
35) CCSc1nc2n(n1)C(c1ccc(Br)cc1)C(C(=O)Nc1ccccc1C)=C(C)N2 (configuration not stated)
36) O=C(NCC1(N2CCCCC2)CCCCC1)c1ccc(N2CCCC2=O)cc1
37) CCOC(=O)C1=C(C)NC2(O)c3ccccc3C(=O)C12O (configuration not stated)
38) CC1=C(C(=O)OCc2ccccc2)C2(O)C(=O)c3ccccc3C2(O)N1 (configuration not stated)
39) COc1ccc(N(CC(O)CN(CC(C)C)CC(C)C)S(=O)(=O)c2ccccc2)cc1 (configuration not stated)
40) N#C/C(=C\c1ccc(-c2ccccc2C(=O)O)o1)c1nc2ccccc2[nH]1

entry no. | 33 | 34 | 35 | 36 | 37 | 38 | 39 | 40
GIV-Gai inh | -59* | nt | 99 | nt | 103 | nt | 117 | 289
HCMV UL50-53 inh | nt | -11 | nt | -22 | nt | 66* | nt | -96

41) N#C/C(=C\c1ccc(-c2ccc(F)cc2F)o1)c1nc2ccccc2[nH]1
42) CS(=O)(=O)c1nc2ccc(NS(=O)(=O)c3cc(F)cc(F)c3)cc2s1
43) Cc1cccc(OCC(=O)N2CCN(c3nc4ccccc4cc3-c3noc(C)n3)CC2)c1
44) CCC1CCCCN1S(=O)(=O)c1ccc2c(c1)N(Cc1noc(C)n1)C(=O)CO2 (configuration not stated)
45) O=C1NC(=O)C(=Cc2ccc(-c3ccccc3)o2)C(=O)N1
46) CC(C=C1C(=O)NC(=O)NC1=O)c1ccccc1 (configuration not stated)
47) CCCS(=O)(=O)c1c(S(=O)(=O)CCC)c2c3ccccc3ccn2c1C(=O)N/N=C/C(C)C
48) COc1ccccc1-c1csc(-c2c(N)c(C(=O)c3ccc(Cl)cc3)n3ccccc23)n1

entry no. | 41 | 42 | 43 | 44 | 45 | 46 | 47 | 48
GIV-Gai inh | -6.1* | 101 | 106 | 106 | 93 | 113 | 113 | 104
HCMV UL50-53 inh | -50 | nt | -19 | nt | nt | 62* | nt | 25

49) Cn1cc(C(=O)N2CCC(Cc3ccccc3)CC2)c(=O)c2cc(S(=O)(=O)N3CCCC3)ccc21
50) Cc1noc(C)c1CSc1nc2c(sc3ncccc32)c(=O)n1CC(C)C
51) CCc1cc2c(=O)n(Cc3ccccc3)c(SCc3c(C)noc3C)nc2s1
52) CCCN(CCC)C(=O)/C=C/c1cc(OC)c(OC)c(OC)c1
53) COc1cc(/C=C/C(=O)/C=C/c2ccc(N(C)C)cc2)cc(OC)c1OC
54) CN(C)C1(CNCC(=O)Nc2ccc(Cl)cc2Cl)CCCCC1
55) CCCCNC(=O)Cn1nnc(-c2cccc(C(F)(F)F)c2)n1
56) Cc1c(Cl)cccc1Nc1c(C(=O)N2CCOCC2)cnc2ccccc12

entry no. | 49 | 50 | 51 | 52 | 53 | 54 | 55 | 56
GIV-Gai inh | 100 | 97 | nt | 105 | -64* | nt | nt | 99
HCMV UL50-53 inh | -26 | 38* | -26 | -33 | nt | -8 | -7 | -14

57) COc1cc(OC)c(Nc2c(C(=O)N3CCOCC3)cnc3ccccc23)cc1Cl
58) COC(=O)Sc1nnc(-c2ccc(C)cc2)o1
59) COC(=O)c1ccc2c(c1)NC(=O)C1CCCN21 (configuration not stated)
60) O=C(O)c1ccc2c(c1)NC(=O)C1CCCN21 (configuration not stated)
61) Cc1ccc(Cn2nccc2NC(=O)Cn2cc(-c3ccc(F)cc3)cn2)o1
62) OCC1OC(Oc2ccccc2)C(O)C(O)C1O (configuration not stated)
63) OC[C@H]1OC([S-])[C@H](O)[C@@H](O)[C@@H]1O.[Au+] (some centres not stated)
64) Cc1ccc(OCCOn2nnc3ccc(S(=O)(=O)N4CCOCC4)cc32)cc1

entry no. | 57 | 58 | 59 | 60 | 61 | 62 | 63 | 64
GIV-Gai inh | 85* | 101 | nt | nt | nt | 102 | nt | nt
HCMV UL50-53 inh | -28 | -19 | -5 | 79* | -24 | -2 | 58* | -20

65) COc1cc(C=C2C(=O)N(C)C(=O)N(C)C2=O)ccc1OS(=O)(=O)c1ccccc1[N+](=O)[O-]
66) CCOc1cc(/C=C2/C(=O)N(c3ccccc3)N=C2C)ccc1OS(=O)(=O)c1ccccc1[N+](=O)[O-]
67) CCN(C(=O)c1cnn(-c2ccccc2)n1)c1nc2c(C)cccc2s1
68) CCCCNC(=O)c1cn(C2CCCC2)c(=O)c2c1c1ccccc1n2C
69) O=C1CC(=O)N(Cc2ccco2)C(=O)N1
70) O=C1CC(=O)N(Cc2cccs2)C(=O)N1
71) N#CCOC(=O)c1ccccc1NC(=O)c1ccccc1
72) COc1cc(OC)c(OC)cc1CN1CCN(c2cccc(C)c2C)CC1
73) COc1ccccc1N1CCN(Cc2cccc3ccccc23)CC1

entry no. | 65 | 66 | 67 | 68 | 69 | 70 | 71 | 72 | 73
GIV-Gai inh | 95 | 106 | nt | 97 | 59* | 114 | nt | 98 | 102
HCMV UL50-53 inh | 43* | 0 | 16 | -30 | 87* | -5 | -2 | 73* | -16

# Source: PubChem BioAssay (ICCB-Longwood Screening Facility, Harvard Medical School)
